Reference: US4602011A, “Antimicrobial compositions and methods of using same” (Chapman Chemical Company, priority 1982, dated 1986)

System: Micrococcus flavus (10240)
Conditions: ppm of active ingredient; "1" means 1 or less

CCCCCCCCCCCCc1ccc(S(=O)(=O)O)cc1 [DDBSA, dodecyl benzene sulfonic acid]
Minimum bactericidal concentration: 100 ppm
